Chains of the proteins cited; added tags and fusions are not shown.
UniProt Q01469, whole entry: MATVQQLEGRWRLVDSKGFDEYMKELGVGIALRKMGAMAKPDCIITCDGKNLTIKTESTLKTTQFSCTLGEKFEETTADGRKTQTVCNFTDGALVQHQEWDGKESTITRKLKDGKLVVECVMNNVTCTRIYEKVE
UniProt P15090, whole entry: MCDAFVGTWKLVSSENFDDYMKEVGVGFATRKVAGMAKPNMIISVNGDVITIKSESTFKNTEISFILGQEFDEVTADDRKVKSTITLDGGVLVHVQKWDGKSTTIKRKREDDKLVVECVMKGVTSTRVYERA

According to US9562052B2, “Bicyclicpyridine derivatives” (Hoffmann-La Roche Inc., priority 2012, dated 2017):

Assays:
human FABP5 (huFABP5) = human FABP5 (huFABP5) (Homo sapiens, UniProt Q01469)
human FABP4 (huFABP4) = human FABP4 (huFABP4) (Homo sapiens, UniProt P15090)

`CC(C)(C)c1nc2c(c(-c3ncc(C(F)(F)F)[nH]3)c1-c1nn[nH]n1)CCCCC2` was tested, and the IC50 (human FABP5 (huFABP5)) was 19.9 µM and the IC50 (human FABP4 (huFABP4)) was 0.2 µM.
